# Reference: US8962608B2, “Cycloalkylnitrile pyrazole carboxamides as janus kinase inhibitors” (Merck Sharp & Dohme Corp., priority 2011, dated 2015)
# Protein sequences, listed by entry. Tags and fused reporters are not part of them. Residues count along the entry.
# UniProt P23458, 875-1153: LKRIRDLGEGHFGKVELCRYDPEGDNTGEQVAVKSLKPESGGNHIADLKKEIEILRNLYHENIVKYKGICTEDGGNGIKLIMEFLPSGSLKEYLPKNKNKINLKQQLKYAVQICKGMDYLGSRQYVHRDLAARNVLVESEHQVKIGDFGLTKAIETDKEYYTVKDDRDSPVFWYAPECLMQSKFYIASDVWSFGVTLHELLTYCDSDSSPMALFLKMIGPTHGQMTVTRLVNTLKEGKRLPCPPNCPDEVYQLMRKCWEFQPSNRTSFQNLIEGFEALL
# UniProt O60674, 849-1124: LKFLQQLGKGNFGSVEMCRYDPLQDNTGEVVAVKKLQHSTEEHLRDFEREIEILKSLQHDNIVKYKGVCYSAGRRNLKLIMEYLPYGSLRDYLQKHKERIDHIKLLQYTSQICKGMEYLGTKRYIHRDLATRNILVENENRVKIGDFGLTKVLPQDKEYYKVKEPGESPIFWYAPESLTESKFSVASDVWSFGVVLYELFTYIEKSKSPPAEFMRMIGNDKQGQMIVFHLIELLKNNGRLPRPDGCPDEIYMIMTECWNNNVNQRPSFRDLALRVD
# Columns and labels:
# [1] = target: JAK1 (recombinant purified GST-tagged catalytic domain) (Homo sapiens (Human), UniProt P23458); assay: biochemical;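 further: biochemical assay with HTRF read-out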
# [2] = target: JAK2 (recombinant purified GST-tagged catalytic domain) (Homo sapiens (Human), UniProt O60674); assay: biochemical;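 further: biochemical JAK kinase assay with HTRF detection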
Compound,IC50 [1] [nM],IC50 [2] [nM]
"CC(C)(c1ccc(Nc2nn([C@@H]3CCCC[C@H]3C#N)cc2C(N)=O)cc1)[C@H](O)C(F)(F)F (single isomer, unassigned) [Example 17-28, 1-[(1R,2R or 1S,2S)-2-cyanocyclohexyl]-3-({4-[(2S or 2R)-3,3,3-trifluoro-2-hydroxy-1,1-dimethylpropyl]phenyl}amino)-1H-pyrazole-4-carboxamide]",3,30
"N#C[C@H]1CCCC[C@@H]1n1cc(C(N)=O)c(Nc2ccc([C@@H](O)C(F)(F)F)cc2)n1 (single isomer, unassigned) [Example 17-36, 1-[(1S,2S or 1R,2R)-2-cyanocyclohexyl]-3-({4-[(1R or 1S)-2,2,2-trifluoro-1-hydroxyethyl]phcnyl}amino)-1H-pyrazole-4-carboxamide]",0.19,2
"C[C@]1(C#N)CC[C@H](O)C[C@@H]1n1cc(C(N)=O)c(Nc2ccc(F)cc2)n1 (racemic) [Example 18, 1-((1S,2S,5S and 1R,2R,5R)-2-Cyano-5-hydroxy-2-methylcyclohexyl)-3-((4-fluorophenyl)amino)-1H-pyrazole-4-carboxamide]",10,22
"CC(C)(c1ccc(Nc2nn([C@H]3CCCC[C@@H]3C#N)cc2C(N)=O)cc1)[C@@H](O)C(F)(F)F (single isomer, unassigned) [Example 17-31, 1-[(1S,2S or 1R,2R)-2-cyanocyclohexyl]-3-({4-[(2R or 2S)-3,3,3-trifluoro-2-hydroxy-1,1-dimethylpropyl]phenyl}amino)-1H-pyrazole-4-carboxamide]",0.6,10
"N#C[C@H]1CCCC[C@@H]1n1cc(C(N)=O)c(Nc2ccc3c(c2)CN(CC(F)(F)F)C3=O)n1 (single isomer, unassigned) [Example 17-20, 1-[(1S,2S or 1R,2R)-2-cyanocyclohexyl]-3-{[1-oxo-2-(2,2,2-trifluoroethyl)-2,3-dihydro-1H-isoindo1-5-yl]amino}-1H-pyrazole-4-carboxamide]",0.17,0.79
"N#C[C@H]1CCCC[C@@H]1n1cc(C(N)=O)c(Nc2ccc(Cl)nc2)n1 (single isomer, unassigned) [Example 17-42, 3-[(6-chloropyridin-3-yl)amino]-1-[(1S,2S or 1R,2R)-2-cyanocyclohexyl]-1H-pyrazole-4-carboxamide]",18,178
"N#C[C@H]1CCCC[C@@H]1n1cc(C(N)=O)c(Nc2ccnc(F)c2)n1 (racemic) [Example 17-1, 1-[(1S,2S and 1R,2R)-2-cyanocyclohexyl]-3-[(2-fluoropyridin-4-yl)amino]-1H-pyrazole-4-carboxamide]",2,21
"N#C[C@@H]1CCCC[C@@H]1n1cc(C(N)=O)c(Nc2ccc(F)cc2)n1 (racemic) [Example 17-15, 1-[(1S,2R and 1R,2S)-2-cyanocyclohexyl]-3-[(4-fluorophenyl)amino]-1H-pyrazole-4-carboxamide]",20,76
"N#C[C@@H]1CCCC[C@H]1n1cc(C(N)=O)c(Nc2ccc3c(c2)CN(CC(F)(F)F)C3=O)n1 (single isomer, unassigned) [Example 17-21, 1-[(1R,2R or 1S,2S)-2-cyanocyclohexyl]-3-{[1-oxo-2-(2,2,2-trifluoroethyl)-2,3-dihydro-1H-isoindo1-5-yl]amino}-1H-pyrazole-4-carboxamide]",1,4

# The next lines start with the values.
IC50 [1] [nM],IC50 [2] [nM],Compound
4,71,"CC(C)(O)C1CN([C@H]2CCC(n3cc(C(N)=O)c(Nc4ccc(Cl)cc4)n3)[C@@H](C#N)C2)C1 (single isomer, unassigned) [Example 28-211, 3-[(4-chlorophenyl)amino]-1-{(1S,2S,4S or 1R,2R,4R)-2-cyano-4-[3-(1-hydroxy-1-methylethyl)azetidin-1-yl]cyclohexyl}-1H-pyrazole-4-carboxamide]"
0.6,8,"N#C[C@H]1C[C@H](O)CC[C@@H]1n1cc(C(N)=O)c(Nc2ccc(OC(F)F)cc2)n1 (single isomer, unassigned) [Example 25-26, 1-[(1S,2S,4R or 1R,2R,4S)-2-cyano-4-hydroxycyclohexyl]-3-{[4-(difluoromethoxy)phenyl]amino}-1H-pyrazole-4-carboxamide]"
0.1,7,"N#C[C@H]1C[C@@H](N2CC3(CCC3)C2)CC[C@@H]1n1cc(C(N)=O)c(Nc2ccc([C@H](O)C(F)(F)F)cc2)n1 (single isomer, unassigned) [Example 28-88, 1-[(1S,2S,4S or 1R,2R,4R)-4-(2-azaspiro[3.3]hept-2-yl)-2-cyanocyclohexyl]-3-({4-[(1S or 1R)-2,2,2-trifluoro-1-hydroxyethyl]phenyl}amino)-1H-pyrazole-4-carboxamide]"
4,69,"N#C[C@H]1C[C@H](N2CCC2)CC[C@@H]1n1cc(C(N)=O)c(Nc2ccnc(F)c2)n1 (single isomer, unassigned) [Example 28-101, 1-[(1S,2S,4R or 1R,2R,4S)-4-azetidin-1-yl-2-cyanocyclohexyl]-3-[(2-fluoropyridin-4-yl)amino]-1H-pyrazole-4-carboxamide]"
1,4,"CC1(c2ccc(Nc3nn([C@H]4CC[C@@H](O)C[C@@H]4C#N)cc3C(N)=O)cc2)COC1 (single isomer, unassigned) [Example 25-20, 1-[(1S,2S,4R or 1R,2R,4S)-2-cyano-4-hydroxycyclohexyl]-3-{[4-(3-methyloxetan-3-yl)phenyl]amino}-1H-pyrazole-4-carboxamide]"
10,610,"N#C[C@@H]1C[C@@H](N(CC2CC2)C2CCC2)CC[C@H]1n1cc(C(N)=O)c(Nc2ccc(C(F)(F)F)cc2)n1 (single isomer, unassigned) [Example 30-10, 1-{(1R,2R,4S or 1S,2R,4R)-2-cyano-4-[cyclobutyl(cyclo-propylmethyl)amino]cyclo-hexyl}-3-{[4-(trifluoromethyl)phenyl]amino}-1H-pyrazole-4-carboxamide]"
0.2,24,"CC1(C)CN([C@@H]2CC[C@H](n3cc(C(N)=O)c(Nc4ccc([C@](C)(O)C(F)(F)F)cc4)n3)[C@@H](C#N)C2)C1 (single isomer, unassigned) [Example 28-45, 1-[(1S,2S,4R or 1R,2R,4S)-2-cyano-4-(3,3-dimethylazetidin-1-yl)cyclohexyl]-3-({4-[(1S or 1R)-2,2,2-trifluoro-1-hydroxy-1-methylethyl]phenyl}amino)-1H-pyrazole-4-carboxamide]"
0.2,25,"CC1CN([C@@H]2CC[C@H](n3cc(C(N)=O)c(Nc4ccc(S(=O)(=O)C(F)(F)F)cc4)n3)[C@@H](C#N)C2)C1 (single isomer, unassigned) [Example 28-187, 1-[(1S,2S,4R or 1R,2R,4S)-2-cyano-4-(3-methylazetidin-1-yl)cyclohexyl]-3-({4-[(trifluoromethyl)sulfonyl]phen-yl}amino)-1H-pyrazole-4-carboxamide]"
2,15,"N#C[C@H]1CCCCC1n1cc(C(N)=O)c(Nc2ccc(F)cc2)n1 (single isomer, unassigned) [Example 43-4, 1-[(1R,2S or 1S,2R)-2-cyanocyclohexyl]-3-[(4-fluorophenyl)amino]-1H-pyrazole-4-carboxamide]"
0.15,5,"C[C@@](O)(c1ccc(Nc2nn([C@H]3CC[C@H](N4CCC4)C[C@@H]3C#N)cc2C(N)=O)cc1)C(F)(F)F (single isomer, unassigned) [Example 28-49, 1-[(1S,2S,4S or 1R,2R,4R)-4-azetidin-1-yl-2-cyanocyclohexyl]-3-({4-[(1R or 1S)-2,2,2-trifluoro-1-hydroxy-1-methylethyl]phenyl}amino)-1H-pyrazole-4-carboxamide]"
2,37,"N#C[C@H]1C[C@@H](N2CCC2)CC[C@@H]1n1cc(C(N)=O)c(Nc2ccnc(F)c2)n1 (single isomer, unassigned) [Example 28-110, 1-[(1S,2S,4S or 11R,2R,4R)-4-azetidin-1-yl-2-cyanocyclohexyl]-3-[(2-fluoropyridin-4-yl)amino]-1H-pyrazole-4-carboxamide]"
125,1500,"N#C[C@H]1C[C@H](N(CC2CC2)C2CCC2)CC[C@@H]1n1cc(C(N)=O)c(Nc2ccc(C(F)(F)F)cc2)n1 (single isomer, unassigned) [Example 30-6, 1-{(1S,2S,4R or 1R,2R,4S)-2-cyano-4-[cyclobutyl(cyclo-propylmethyl)amino]cyclo-hexyl}-3-{[4-(trifluoromethyl)phenyl]amino}-1H-pyrazole-4-carboxamide]"
40,1200,"N#C[C@H]1C[C@H](N(CC2CC2)C2COC2)CC[C@@H]1n1cc(C(N)=O)c(Nc2ccc(C(F)(F)F)cc2)n1 (single isomer, unassigned) [Example 30-12, 1-{(1S,2S,4R or 1R,2R,4S)-2-cyano-4-[(cyclopropylmethyl)(oxetan-3-yl)amino]cyclohexyl}-3-{[4-(trifluoromethyl)phenyl]amino}-1H-pyrazole-4-carboxamide]"
0.15,17,"CC(C)(NC1CCC(n2cc(C(N)=O)c(Nc3ccc(Cl)cc3)n2)[C@@H](C#N)C1)C1CC1 (single isomer, unassigned) [Example 28-208, 3-[(4-chlorophenyl)amino]-1-{(1S,2S or 1R,2R)-2-cyano-4-[(1-cyclopropyl-1-methylethyl)amino]cyclohexyl}-1H-pyrazole-4-carboxamide]"
66,480,"N#C[C@H]1C[C@@H](C(=O)N2CC3(CCC3)C2)CC[C@@H]1n1cc(C(N)=O)c(Nc2ccc(Cl)cc2)n1 (single isomer, unassigned) [Example 35-17, 1-[(1S,2S,4S or 1R,2R,4R)-4-(2-azaspiro[3.3]hept-2-ylcarbonyl)-2-cyanocyclohexyl]-3-[(4-chlorophenyl)amino]-1H-pyrazole-4-carboxamide]"
